Reference: PubChem BioAssay AID2300 (The Scripps Research Institute Molecular Screening Center, 2010)
The list shows a part of the results, in another mix than the full data. The source made the active and inactive calls.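 How the source made its calls: active means percent inhibition above the cutoff of mean plus 3 SD of all tested compounds, set per screening campaign (cut at about 20% in these data); inactive means the rest.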

By UniProt entry, the sequences of proteins in these tests, tags left out. Where a name states a change or a piece, a line headed by the entry shows the natural chain unless it says otherwise.
UniProt Q9Y5X4: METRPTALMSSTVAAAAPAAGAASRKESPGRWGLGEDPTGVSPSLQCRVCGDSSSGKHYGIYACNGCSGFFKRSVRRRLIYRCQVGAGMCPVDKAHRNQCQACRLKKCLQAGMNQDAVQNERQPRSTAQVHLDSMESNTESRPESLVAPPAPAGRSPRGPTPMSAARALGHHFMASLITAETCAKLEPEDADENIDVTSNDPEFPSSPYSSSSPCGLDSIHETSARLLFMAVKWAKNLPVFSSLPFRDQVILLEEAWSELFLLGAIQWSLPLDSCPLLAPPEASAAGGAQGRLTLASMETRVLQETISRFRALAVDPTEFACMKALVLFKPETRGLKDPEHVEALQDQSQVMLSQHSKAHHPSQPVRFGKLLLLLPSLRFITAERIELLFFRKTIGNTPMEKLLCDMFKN

Target: Photoreceptor-specific nuclear receptor (Homo sapiens) (UniProt Q9Y5X4)
Test: disruption of NR2E3 corepressor interaction – biochemical, TR-FRET, GST-NR2E3, biotin-RetCOR, NR2E3 agonist project, primary screen (AID 2300);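 further: 0% = DMSO wells and 100% = biotin wells as full block of FRET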
Settings: 1536-well, at 4.78 µM, active compounds read high
Method in brief: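 System: GST-tagged NR2E3 plus biotinylated RetCOR corepressor; Amount: 1.35 nM GST-tagged NR2E3 final; Dosing: single nominal compound dose of 4.8 µM; Schedule: 5 h incubation at 4 °C; Technique: TR-FRET with europium anti-GST and streptavidin-D2, 340 nm excitation; Controls: biotin wells as high control, 0.6% DMSO wells as low control.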

Row | SMILES | inhibition of corepressor binding
1 | O=P(Nc1nc2ccc(Cl)cc2s1)(c1ccccc1)c1ccccc1 | inactive: 0.82%
2 | CC(=O)Nc1ccc([As](=O)(O)O)cc1 | inactive: 0.66%
3 | O=C(O)c1ccccc1[As](=O)(O)O | inactive: 1.23%
4 | CN(C(=O)Cc1ccc(Cl)c(Cl)c1)[C@H]1CCCC[C@@H]1N1CCCC1 | inactive: 3.07%
5 | Cc1ccc(NP(=O)(Oc2ccccc2F)Oc2ccccc2F)nc1 | inactive: 3.39%
6 | Cc1cc(SC(NC(=O)c2ccc(F)cc2)C(Cl)(Cl)Cl)ncn1 (centres undefined) | inactive: -0.72%
7 | CCOP(=O)(Nc1ccccc1)OCC | inactive: 0.14%
8 | O=[N+]([O-])c1cc([N+](=O)[O-])c(CCN2CCOCC2)c([N+](=O)[O-])c1 | inactive: -1.4%
9 | CCN(N=Nc1nonc1N)c1nonc1N | inactive: -0.98%
10 | Cc1ccc(N/C(=N/P(=O)(N2CCOCC2)N2CCOCC2)N2CCOCC2)cc1 | inactive: -0.19%
11 | CN(C(=O)Cc1ccc(Cl)c(Cl)c1)[C@H]1CCCC[C@H]1N1CCCC1 | inactive: 0.59%
12 | NC(=O)c1cc([N+](=O)[O-])cc([N+](=O)[O-])c1N | inactive: 1.48%
13 | CN1CCCC(OC(=O)C(c2ccccc2)c2ccccc2)C1 (centres undefined) | inactive: 1.21%
14 | Clc1ccc(Cl)c(NC2=NCC(CBr)S2)c1 (centres undefined) | inactive: 2.05%
15 | Cc1ccc(OP(=O)(Nc2nccs2)Oc2ccc(C)cc2)cc1 | inactive: 0.11%
16 | COc1ccccc1OP(=O)(Nc1ccc(C)cn1)Oc1ccccc1OC | inactive: 4.13%
17 | O=C(NC(Sc1ccncn1)C(Cl)(Cl)Cl)c1ccccc1 (centres undefined) | inactive: -0.07%
18 | Cc1c2non([O-])c-2c(C)[n+](=O)[n+]1[O-] | inactive: 0.83%
19 | Oc1ccccc1CNc1ccccn1 | inactive: 1.09%
20 | Nc1cc(N)c2nonc2c1[N+](=O)[O-] | inactive: 1.88%
21 | CC(C)CC(=O)NC(Sc1ccc(Cl)cc1)C(Cl)(Cl)Cl (centres undefined) | inactive: -0.21%
22 | COc1ccc(C2=NCC(CBr)S2)cc1 (centres undefined) | inactive: -0.57%
23 | O=[N+]([O-])c1cc([N+](=O)[O-])c(CCNc2ccccc2)c([N+](=O)[O-])c1 | inactive: 3.49%
24 | CCc1nc2c(n1)c1c(non1O)c1c2no[n+]1[O-] | inactive: -0.67%
25 | Cc1ccc(NP(=O)(Oc2ccccc2)Oc2ccccc2)nc1 | inactive: 5.39%

Row | SMILES | inhibition of corepressor binding
26 | CC(=O)N1C2C3N(C(C)=O)C1C1N(C(C)=O)C(C(N1C(C)=O)N3C(C)=O)N2C(C)=O | inactive: -1.25%
27 | O=[N+]([O-])c1cccc2n[nH]nc12 | inactive: -2.7%
28 | CCN(/C(=N/P(=O)(N1CCOCC1)N1CCOCC1)N1CCOCC1)c1ccc(OC)cc1 | inactive: 3.89%
29 | C[N+]1=C2C=CC=CC=C2SC12C([N+](=O)[O-])=CC([N+](=O)[O-])=C[C-]2[N+](=O)[O-] (centres undefined) | inactive: -0.83%
30 | Nc1ccc([As](=O)(O)c2ccc(N)cc2)cc1 | inactive: -1.85%
31 | CC1CCN(C(=O)Oc2c(Cl)cc(Cl)c3cccnc23)CC1 | inactive: -0.58%
32 | CN(C)C(=O)OCCc1n(C)cc[n+]1C | inactive: -1.05%
33 | CC(C)=N/N=C(\N)N[N+](=O)[O-] | inactive: 3.67%
34 | O=C(Nc1cc([As](=O)(O)O)ccc1O)c1ccccc1 | inactive: -1.94%
35 | O=[N+]([O-])c1ncn(CCn2ncnc2[N+](=O)[O-])n1 | inactive: 0.94%
36 | CC(C)(C)C(=O)NC(Sc1ccncn1)C(Cl)(Cl)Cl (centres undefined) | inactive: -1.03%
37 | O=[N+]([O-])c1cccc(NC2=NCC(CBr)S2)c1 (centres undefined) | inactive: -2.14%
38 | CN(C)C1(CNC(=O)c2ccc(Cl)c(S(N)(=O)=O)c2)CCCCC1 | inactive: 1.56%
39 | O=P(Nc1ccccn1)(c1ccc(Br)cc1)c1ccc(Br)cc1 | inactive: 3.49%
40 | C[C@H]1OP(=O)(Oc2ccccc2)[C@H](O)[C@H](O)[C@H]1N=[N+]=[N-] (some centres undefined) | inactive: 0.05%
41 | O=P(Nc1nc2ccccc2s1)(c1ccccc1)c1ccccc1 | inactive: -1.33%
42 | O=[As](O)(c1ccccc1)c1ccc(O)cc1 | inactive: -0.09%
43 | CC(=O)NC(SC(=S)N(C)C)C(Cl)(Cl)Cl (centres undefined) | inactive: -0.77%
44 | O=[N+]([O-])c1ncn(CCn2cnc([N+](=O)[O-])n2)n1 | inactive: 3.44%
45 | O=[N+]([O-])c1ccc(O)c(/C=N/Nc2ccc([N+](=O)[O-])cc2[N+](=O)[O-])c1 | inactive: 4.05%
46 | O=C(OC1CN2CCC1CC2)c1cccc(Cl)c1 (centres undefined) | inactive: 3.16%
47 | C(Cc1nn[nH]n1)Cc1nn[nH]n1 | inactive: -0.29%
48 | Nc1ccc([As](=O)(O)c2ccc([N+](=O)[O-])cc2)cc1 | inactive: 2.21%
49 | O=P(Nc1nccs1)(c1ccccc1)c1ccccc1 | inactive: -2.49%
50 | CC(C)C(=O)NC(Sc1ccccc1)C(Cl)(Cl)Cl (centres undefined) | inactive: 0.47%

Row | SMILES | inhibition of corepressor binding
51 | c1nnnn1CCn1cnnn1 | inactive: -3.04%
52 | CCOc1ccc(C2=NCC(CBr)S2)cc1 (centres undefined) | inactive: -1.81%
53 | O=P1(Nc2nc3ccc(Cl)cc3s2)COc2ccccc2O1 (centres undefined) | inactive: 0.65%
54 | CC(C)(C)C(=O)NC(Sc1ccccc1)C(Cl)(Cl)Cl (centres undefined) | inactive: 1.66%
55 | C[C@H]1OP(=O)(Oc2ccccc2)C[C@@H]2O[C@@H]21 (some centres undefined) | inactive: -1.83%
56 | C[C@@H]1C=CCP(=O)(Oc2ccccc2)O1 (some centres undefined) | inactive: -0.87%
57 | Cc1ccccc1CN(C)C(=O)COC(=O)C(O)(c1ccccc1)c1ccccc1 | inactive: 1.51%
58 | CC(=O)c1ccc(N2CC2c2ccncc2)cc1 (centres undefined) | inactive: -2.62%
59 | CC(=O)Nc1ccc(Oc2c([N+](=O)[O-])cc([N+](=O)[O-])cc2[N+](=O)[O-])cc1 | inactive: 6.86%
60 | CC(=O)Nc1ccc([As](=O)(O)O)c(O)c1 | inactive: 1.32%
61 | Cc1ccc(NP(=O)(Oc2cccc(C)c2)Oc2cccc(C)c2)nc1 | inactive: 3.1%
62 | CCOC(=O)NC(Sc1ccccc1)C(Cl)(Cl)Cl (centres undefined) | inactive: 2.29%
63 | c1ccc(-c2nn[nH]n2)c(-c2nn[nH]n2)c1 | inactive: -1.6%
64 | O=C(NC1CCS(=O)(=O)C1)NP(=S)(Oc1ccccc1)Oc1ccccc1 (centres undefined) | inactive: 2.79%
65 | CCNC(=S)/N=C(\N)N[N+](=O)[O-] | inactive: 0.07%
66 | CCC(=O)N1C2C3N(C(=O)CC)C1C1N(C(=O)CC)C(C(N1C(=O)CC)N3C(=O)CC)N2C(=O)CC | inactive: -1.67%
67 | O=C(OC1CN2CCC1CC2)c1ccccc1 (centres undefined) | inactive: 0.32%
68 | CC(=O)NC(SC(=S)N(CC(C)C)CC(C)C)C(Cl)(Cl)Cl (centres undefined) | inactive: 0.27%
69 | Cc1ccc(OP(=O)(Nc2ccccn2)Oc2ccc(C)cc2)cc1 | inactive: 3.39%
70 | COC(=O)c1cc2c(s1)N=C(c1ccccc1)N(C)P2(=O)N1CCOCC1 (centres undefined) | inactive: 4.04%
71 | CN(C)C(=O)Oc1noc2ccccc12 | inactive: -4.61%
72 | Cc1ccccc1OP(=O)(Nc1ccccn1)Oc1ccccc1C | inactive: 3.26%
73 | O=P(Nc1nccs1)(Oc1ccccc1)Oc1ccccc1 | inactive: -3.57%
74 | O=P(Nc1nccs1)(c1ccccc1)c1nc2ccccc2s1 (centres undefined) | inactive: -2.82%
75 | CCOP1(=S)c2c(C)nn(CCC#N)c2N=C(c2ccccc2F)N1C (centres undefined) | inactive: 1.63%

Row | SMILES | inhibition of corepressor binding
76 | CS(=O)(=O)c1cc([N+](=O)[O-])c2no[n+]([O-])c2c1 | inactive: -2.51%
77 | O=C(O)COc1ccc([As](=O)(O)O)cc1[N+](=O)[O-] | inactive: -1.32%
78 | Nc1ccccc1[As](=O)(O)c1ccccc1 | inactive: 2.13%
79 | NC(=O)Nc1ccc([As](=O)(O)O)cc1 | inactive: 1.19%
80 | CCOP1(=S)c2c(C)nn(CCC#N)c2N=C(c2ccc(F)cc2)N1C (centres undefined) | inactive: 2.57%
81 | CN(C(=O)Cc1ccccc1)[C@@H]1CC[C@]2(CCCO2)C[C@H]1N1CCCC1 | inactive: 2.96%
82 | N#CCCN(C(=O)COC(=O)C(O)(c1ccccc1)c1ccccc1)c1ccc(F)cc1 | inactive: -6.81%
83 | CN(C(=O)Cc1ccc(Cl)c(Cl)c1)[C@H]1CC[C@@]2(CCCO2)C[C@@H]1N1CCCC1 | inactive: 1.94%
84 | O=[N+]([O-])c1ccc2c(c1)nnn2O | inactive: 0.68%
85 | CN(C)C(=O)c1cc([N+](=O)[O-])cc2c1-c1c(cc([N+](=O)[O-])cc1[N+](=O)[O-])C2=O | inactive: -9.85%
86 | O=C(OC1CN2CCC1CC2)c1ccc(Cl)cc1 (centres undefined) | inactive: 0.45%
87 | CS(=O)(=O)c1ccc(Cl)c(NC(=O)COC(=O)C(O)(c2ccccc2)c2ccccc2)c1 | inactive: 1.42%
88 | O=[As](O)(O)c1cccnc1 | inactive: -1.74%
89 | COc1cc(C(=O)NCC2(N3CCOCC3)CCCCC2)cc(Cl)c1OC(C)C | inactive: -2%
90 | Cc1cccc(OCC(=O)OC2CN3CCC2CC3)c1 (centres undefined) | inactive: -0.25%
91 | O=[As](O)(c1cccc(O)c1)c1cccc(O)c1 | inactive: -0.68%
92 | Cc1ccc(NCCc2c([N+](=O)[O-])cc([N+](=O)[O-])cc2[N+](=O)[O-])cc1 | inactive: -0.57%
93 | Nc1cccc2c([As](=O)(O)O)cccc12 | inactive: 1.34%
94 | CCCOP(=S)(Nc1nc(N)cc(=O)[nH]1)OCCC | inactive: 0.45%
95 | CCOP(=O)(Nc1cccc2ccccc12)OCC | inactive: -0.72%
96 | COc1cc(C2NCCC3(OCCO3)C2(C)C)cc(OC)c1OC (centres undefined) | inactive: 1.05%
97 | CCOP(=O)(NC(=NC(C)c1ccccc1)NC(C)c1ccccc1)OCC (centres undefined) | inactive: 4.53%
98 | CCC1=CC2Cc3nc4ccc(Cl)cc4c(N)c3C(C1)C2 (centres undefined) | inactive: -0.23%
99 | O=P1(Nc2ccccn2)COc2ccccc2OC1 | inactive: 0.05%
